These are literature values, as cited in patent US20220151944A1, “FLUOROURACIL-CONTAINING FORMULATIONS” (SISAF LIMITED, priority 2019, published 2022).

For orthosilicic acid, the pKa result was “around 9.8”.
